From BindingDB's records for doi:10.1021/acs.jmedchem.6b01270 (University of Tennessee Health Science Center, 2017)

Assay: Inhibition of ATX (unknown origin) expressed in human A2058 cells assessed as inhibition of LPC-induced cell invasion after 20 hrs by calcein-AM dye based matrigel-mediated Boyden chamber assay

O=C(Nc1cc(F)c(F)c(F)c1)c1cc(S(=O)(=O)N2CCOCC2)c(Cl)cc1Cl
IC50: 1480 nM
